Measured affinities in a library of Ab-14 heavy chain variants

Values reported by Li et al. 2023, doi:10.1038/s41467-023-39022-2 (FLAb copy).

The target is the same throughout: PDVDLGDISGINAS, from the HR2 region of SARS-CoV-2 spike.

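The starting antibody came from a phage panning campaign against this peptide. This is the validation round: designs drawn from the data on random variants, tested in the same kind of assay. Group labels follow the data file (Ctrl: baseline library sampled from a position-specific scoring matrix, with some repeated check sequences; Rand: our label for a block that the file lists under HC and that is probably the random mutants of the ten best first-round binders; En: ensemble of fine-tuned language models; GP: Gaussian process model; GPLM: also part of the Gaussian process libraries; HC: hill climbing; Gen: genetic algorithm; Gibbs: Gibbs sampling; a sequence that several methods proposed may carry one label only). The scFvs were displayed on barcoded MATa yeast, the peptide on MATalpha yeast. The frequency of each diploid, read from paired DNA barcodes, reflects how well the two displayed proteins bind. The ratio of observed to expected reads was calibrated, replicate by replicate, on BCL2-family standards whose Kd was known from biolayer interferometry. There are six technical replicates.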

Ab-14 is the parent antibody, in scFv form: VH, then a (GGGGS)3 linker, then VL. The light chain is unchanged in all variants.
VH: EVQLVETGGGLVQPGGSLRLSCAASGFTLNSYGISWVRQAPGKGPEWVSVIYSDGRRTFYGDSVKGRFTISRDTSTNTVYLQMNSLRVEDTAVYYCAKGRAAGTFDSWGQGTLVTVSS
VL: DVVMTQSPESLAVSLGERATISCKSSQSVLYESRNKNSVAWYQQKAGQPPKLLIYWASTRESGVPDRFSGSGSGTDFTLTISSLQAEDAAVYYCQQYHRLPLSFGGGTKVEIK

The parent's heavy chain CDRs are GFTLNSYGIS, VIYSDGRRTFYGDSVK, GRAAGTFDS; each variant's own CDRs replace them letter for letter. Variants here have at most six changes. Each Kd is an estimate from the mating assay, the geometric mean of the replicates in which the pair was seen; lower is stronger. An entry "nd" has no value in the source: the pair was not observed among the diploids in any replicate. This suggests poor binding but is not conclusive. The range of this assay differs from that of the first round, and the authors advise against merging the two. Some sequences occur more than once in the pool; their replicates are pooled. Nonspecific signal, from three strains lacking the peptide, appeared in 1% of pairings of all heavy chain designs, centred on 120 nM (5% of these signals below 7.0 nM); values are not corrected for it. Of ten entries with the parent sequence, four were seen in most replicates (averages 2.2 nM to 240 nM), three in one and three in none, so single entries are noisy. The authors' rule: three or more of the six replicates give a measured affinity, fewer mean a poor binder.

Variant GFTLNSYGIS / VIYSDGRRTFYEDSVK / GRAAGTFDI [Ctrl] gave nd (0 of 6 replicates). Variant GFNLNEYGIS / VIYADGMRTFYADSVK / GEAAGTFDS [En_HC] showed 110 pM (6 of 6 replicates). For GFSLNEYGIS / VIYSDGRRTFYGDSVK / GRAPGTFDS [GP_Gibbs], the assay gave 4.7 nM (6 of 6 replicates). Variant GFNLNLYGIS / VIYSDGRRTFYGNNVK / GRWQGTFDS [Ctrl] gave nd (0 of 6 replicates). Variant GFNLNSYGIS / VIYSDGRRTFYADSVK / GRIAGTFDS [GPLM_Gen] showed 9.7 nM (6 of 6 replicates). With GFDLNSYGIS / VIYSDGRRTFYLDSVK / GRTAGTFDT [GP_Gibbs] the result was 14 nM (6 of 6 replicates).

For GFDLNSYGIS / VIYSDGRRTFYLDSVK / GREAGTFDS [GP_Gen], the assay gave 800 pM (6 of 6 replicates). For GFVLNEYGIS / VIYSDGRRTFYTDSVK / GRAAGTFDS [GP_HC], the assay gave 13 nM (6 of 6 replicates). Variant GFRLNSYGIS / VIYSDGRRTFYGDSVK / GRASGTFDS [Ctrl] showed nd (0 of 6 replicates). Variant GFTLNDYGIS / VIYSDGLRTFYGDSVK / GRAAGYFDS [Ctrl] gave nd (0 of 6 replicates). Variant GFQLNSYGIS / VIYSDGRRTFYGDSVK / VRAAGTFDS [Ctrl] showed nd (0 of 6 replicates). For GFTLNSYGIS / VIYSDGKRTFYGDSVK / GWVAGTFDT [GPLM_Gibbs], the assay gave 24 nM (5 of 6 replicates).

With GFDLNSYGIS / VIYSDGRRTFYGDRVK / GRTAGTFDS [GPLM_Gibbs] the result was 1.4 nM (6 of 6 replicates). Variant GFTLRSHGIS / VIYSDGRRTMYGDSVK / GRAAGTFDS [Ctrl] gave nd (0 of 6 replicates). Variant GFSLNSYGIS / VIYSDGRRTFYKDSVK / GRAAGTFDS [GPLM_Gen] gave 1.7 nM (6 of 6 replicates). For GFALNEYGIS / VIYADGRRTFYGDSVK / GGAAGTFDS [GP_HC], the assay gave 650 pM (6 of 6 replicates). Variant GFDLNSYGIS / VIYSDGRRTFYGDSVK / GKEAGTFDT [GP_Gen] showed 650 pM (6 of 6 replicates). For GFTLESYGIS / VIYSDGERTFYADSVK / GRAAGTFDS [GP_HC], the assay gave 3.3 nM (6 of 6 replicates).

With GFSLNEYGIS / VIYSDGRRTFYGDSVK / GRSAGTFDS [GPLM_Gen] the result was 570 pM (6 of 6 replicates). Variant GFTLNSYGIS / VIYSDGRRTFYEDSVK / GQEAGTFDS [GP_HC] gave 830 pM (6 of 6 replicates). For GFTLNSYGIS / VIYSDGRRTFYGDPVK / GRTAGTFDS [GPLM_Gen], the assay gave nd (0 of 6 replicates). Variant GFTLNSYGIS / VIYSDGIRTMYNDSVK / GRAAGSFDS [Ctrl] showed nd (0 of 6 replicates). With GFTLNSYGIS / VIYSDGLRTFYQDSVK / GRAAGTFDS [Ctrl] the result was 54 nM (4 of 6 replicates). Variant GFSLNDYGIS / VIYSDGRRTFYGDSVK / GRWAGTFDS [GPLM_Gen] gave 2.4 nM (6 of 6 replicates).

Variant GFTLESYGIS / VIYSDGRRTFYADSVK / GAAAGTFDS [GPLM_Gen] showed 1.5 nM (6 of 6 replicates). Variant GFTLDSYGIS / VIYSDGRRTFYGDSVK / GRAAGTANS [Rand] showed 95 nM (1 of 6 replicates). Variant GFTLNSYGIS / VIYSDGWRTFYDDSVK / GRAAGTFDA [Ctrl] showed 110 nM (5 of 6 replicates). With GFNLNSYGIS / VIYSDGRRTFYGDSVK / GDAAGTFDS [Ctrl+GPLM_Gibbs] the result was 7.3 nM (12 of 12 replicates). For GFTLNEYGYS / VIYADGRRTFYGDSVK / GSTAGTFDS [Ctrl], the assay gave 28 nM (1 of 6 replicates). For GFELNSYGIS / VIYSDGRRTFYMDSVK / GQTAGTFDA [GP_Gibbs], the assay gave 12 nM (6 of 6 replicates).

For GFSLNEYGIS / VIYSDGRRTFYDDSVK / GRNAGTFDS [GP_HC], the assay gave 1.7 nM (6 of 6 replicates). Variant GFTLNEYGIS / VIYSDGVRTFYGDRVK / GRAAGAFDS [Ctrl] gave nd (0 of 6 replicates). With GFTLNDYGIS / VIYSDGRRTFYGDSVK / GRAAWTFDS [Ctrl] the result was nd (0 of 6 replicates). Variant GFTLNKYGIS / VIYSIGRRTFYGDSVK / GRAAVTFDQ [Rand] showed nd (0 of 6 replicates). With GFTLNSYGIS / VIYGDGRRTFYGDSVK / GRQAGTFDS [Ctrl] the result was 36 nM (1 of 6 replicates). For GFTLESYGIS / VIYSDGRRTFYGDSVK / GRAVGTFDS [Ctrl], the assay gave 69 nM (2 of 6 replicates).

With GFDLNTYGIS / VIYSDGRRTFYHDSVK / GEAAGTFDS [GP_Gibbs] the result was 130 nM (2 of 6 replicates).

The 2 strongest on average among those seen in every replicate, once more:

For GFNLNEYGIS / VIYADGMRTFYADSVK / GEAAGTFDS [En_HC], the assay gave 110 pM (6 of 6 replicates).
For GFSLNEYGIS / VIYSDGRRTFYGDSVK / GRSAGTFDS [GPLM_Gen], the assay gave 570 pM (6 of 6 replicates).